Data taken from ChEMBL document CHEMBL1151743, “Dual inhibitors of matrix metalloproteinases and carbonic anhydrases: iminodiacetyl-based hydroxamate-benzenesulfonamide conjugates” (J Med Chem, 2008).

Experiments:
Carbonic anhydrase 9 = Carbonic anhydrase 9 (Homo sapiens, UniProt Q16790)
Carbonic anhydrase 1 = Carbonic anhydrase 1 (Homo sapiens, UniProt P00915)
Carbonic anhydrase 2 = Carbonic anhydrase 2 (Homo sapiens, UniProt P00918)

Row | Compound | Ki (Carbonic anhydrase 9) | Ki (Carbonic anhydrase 1) | Ki (Carbonic anhydrase 2)
1 | NS(=O)(=O)c1ccc(CCNC(=O)CN(CC(=O)NO)S(=O)(=O)c2ccc(Oc3ccccc3)cc2)cc1 | 12 nM | 95 nM | 65 nM
2 | NS(=O)(=O)c1ccc(CCNC(=O)CN(CC(=O)NO)S(=O)(=O)c2ccc(-c3ccccc3)cc2)cc1 | 13 nM | 2490 nM | 35 nM
